Here are results for 61 compounds from PubChem BioAssay AID602449 (Sanford-Burnham Center for Chemical Genomics, 2012).

SMILES strings stand for the structures. This is a selection; strong and weak results do not stand in their true shares. The source made the active and inactive calls.

The nature of this test: blockers of Ca2+-induced mitochondrial swelling – biochemical, isolated mouse mitochondria, absorbance, primary screen (AID 602449).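 Also: 0% = DMSO wells given calcium and 100% = 1 mM EGTA wells.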 Conditions: 30 min, at 10 µM, stronger effect = higher value.
Turning to `CN1CCC(Nc2cccc(F)c2)CC1`, the inhibition – broadly, the change of the read-out against control, counted positive when it falls – is inactive: -1.3%.

On to `O=C(NCC1(N2CCCCC2)CCCCC1)c1cncc(Br)c1`, for which the inhibition was inactive: -0.2%.

Consider `COc1ccc(C(c2nnnn2C2CCCC2)N2CCC(n3c(=O)[nH]c4ccccc43)CC2)cc1` (stereo unspecified), for which the inhibition was inactive: 0.4%.

On to `Cc1ccc(C(=O)NCC2(N(C)C)CCCCC2)o1`, for which the inhibition is inactive: 0.1%.

With `CCCOc1ccc(C(=O)NCC2(N(C)C)CCCCC2)cc1OC`, the inhibition is inactive: -1.3%.

`CCCCn1nnnc1C(c1ccccc1OC(F)(F)F)N1CCC(n2c(=O)[nH]c3ccccc32)CC1` (stereo unspecified): the inhibition is inactive: 0%.

Consider `CC(C)c1ccc(NC2CCN(C(=O)OC(C)(C)C)CC2)cc1`, for which the inhibition was inactive: 4.2%.

On to `COc1ccc(CN(CCCl)CCCl)cc1Cl`, for which the inhibition was inactive: 0.2%.

As for `CN(C)c1cccc(C(=O)NCC2(N3CCCCC3)CCCCC2)c1`, the inhibition was inactive: -0.4%.

As to `COc1cc(OC)c(C(=O)NCC2(N(C)C)CCCCC2)cc1OC`, the inhibition is inactive: -0.3%.

As to `CCC(c1nnnn1C(C)(C)C)N1CCC(n2c(=O)[nH]c3ccccc32)CC1` (stereo unspecified), the inhibition was inactive: -1.4%.

In the case of `O=C(NCC1(N2CCOCC2)CCCCC1)c1cc(F)c(F)cc1Cl`, the inhibition was inactive: -0.5%.

In the case of `CCCCn1nnnc1C(c1ccnc2ccccc12)N1CCC(n2c(=O)[nH]c3ccccc32)CC1` (stereo unspecified), the inhibition is inactive: -1.3%.

Consider `O=C(NCC1(N2CCCCC2)CCCCC1)c1cccc(C(F)(F)F)c1`, for which the inhibition was inactive: 2%.

Take `O=C(NCC1(N2CCOCC2)CCCCC1)c1cc(=O)[nH]c2ccccc12`: the inhibition was inactive: 1.1%.

As for `COc1cc(C(=O)NCC2(N3CCCCC3)CCCCC2)ccc1OC(F)F`, the inhibition was inactive: 0.2%.

Take `CC(C)c1ccc(C(=O)NCC2(N3CCOCC3)CCCCC2)cc1`: the inhibition is inactive: -2.3%.

With `COc1ccc(NC2CCN(C(=O)OC(C)(C)C)CC2)cc1`, the inhibition is inactive: -1.4%.

For `CN1CCN(CCOC(=O)C(O)(c2ccccc2)c2ccccc2)CC1`, the inhibition is inactive: 0.6%.

Take `CCCCn1nnnc1C(c1cccc2ccccc12)N1CCC(n2c(=O)[nH]c3ccccc32)CC1` (stereo unspecified): the inhibition was inactive: -0.6%.

`CC(C)(C)n1nnnc1C(c1ccccc1OC(F)(F)F)N1CCC(n2c(=O)[nH]c3ccccc32)CC1` (stereo unspecified): the inhibition was inactive: 1.9%.

Turning to `O=C(NCC1(N2CCCCC2)CCCCC1)c1ccc(OC(F)F)cc1`, the inhibition was inactive: -0.4%.

`CCN1CCC(Nc2ccc(Cl)cc2)CC1`: the inhibition was inactive: 0.5%.

Consider `O=c1[nH]c2ccccc2n1C1CCN(C(c2ccccc2OC(F)(F)F)c2nnnn2C2CCCC2)CC1` (stereo unspecified), for which the inhibition was inactive: -0.1%.

On to `N#CC1(Nc2ccccc2)CCN(CCc2ccccc2)CC1`, for which the inhibition is inactive: -2.4%.

Regarding `O=C(NCC1(N2CCCCC2)CCCCC1)c1cccc([N+](=O)[O-])c1`, the inhibition was inactive: -3.3%.

Take `CSc1ccc(C(=O)NCC2(N3CCOCC3)CCCCC2)cc1`: the inhibition was inactive: -1.1%.

In the case of `O=c1[nH]c2ccccc2n1C1CCN(C(c2ccccc2)c2nnnn2C2CCCCC2)CC1` (stereo unspecified), the inhibition was inactive: -1.4%.

With `CCOC(=O)N1CCC(Nc2cccc(C)c2)CC1`, the inhibition was inactive: 0%.

On to `COc1cc(C(=O)NCC2(N(C)C)CCCCC2)ccc1OC(F)F`, for which the inhibition is inactive: 0%.

On to `O=c1[nH]c2ccccc2n1C1CCN(C(c2cccc3ccccc23)c2nnnn2C2CCCC2)CC1` (stereo unspecified), for which the inhibition is inactive: 0.6%.

As to `CC(C)(C)n1nnnc1C(c1ccccc1)N1CCC(n2c(=O)[nH]c3ccccc32)CC1` (stereo unspecified), the inhibition is inactive: -0.7%.

Take `O=C1CCN(Cc2ccccc2)CC1`: the inhibition is inactive: 0.8%.

For `CCOc1ccc(C)cc1CN(CCCl)CCCl`, the inhibition is inactive: 2%.

On to `CCCCOc1ccc(C(=O)NCC2(N3CCOCC3)CCCCC2)cc1`, for which the inhibition is inactive: -1.6%.

Take `CCCCn1nnnc1C(c1cc2ccccc2o1)N1CCC(n2c(=O)[nH]c3ccccc32)CC1` (stereo unspecified): the inhibition is inactive: -0.6%.

With `O=P1(N(CCCl)CCCl)SCCCS1`, the inhibition is inactive: 0.1%.

For the compound `O=C(NCC1(N2CCCCC2)CCCCC1)c1ccc(F)cc1`, the inhibition is inactive: -2.2%.

On to `CCOC(=O)N1CCC(Nc2ccc(F)cc2)CC1`, for which the inhibition was inactive: 0.2%.

Consider `COc1ccc(NC2CCN(CCc3ccccc3)CC2)c(OC)c1`, for which the inhibition is inactive: -0.2%.

`O=C(NCC1(N2CCCCC2)CCCCC1)c1ccc(Cl)nc1`: the inhibition was inactive: -2.1%.

Consider `O=c1[nH]c2ccccc2n1C1CCN(C(c2ccccc2OC(F)(F)F)c2nnnn2C2CCCCC2)CC1` (stereo unspecified), for which the inhibition is inactive: -0.1%.

Turning to `Cc1cc(C)cc(N(C(=O)c2ccccc2)C2CCN(C(=O)OC(C)(C)C)CC2)c1`, the inhibition was inactive: 0.1%.

As to `O=C(NCC1(N2CCOCC2)CCCCC1)c1cc2ccccc2o1`, the inhibition is inactive: -3.1%.

Take `O=C(NCC1(N2CCCCC2)CCCCC1)c1ccc(Cl)s1`: the inhibition is inactive: -2.4%.

Turning to `N#CC1(Nc2ccccc2)CCN(Cc2ccccc2)CC1`, the inhibition was inactive: 0.7%.

Regarding `O=c1[nH]c2ccccc2n1C1CCN(C(c2cc3ccccc3o2)c2nnnn2C2CCCCC2)CC1` (stereo unspecified), the inhibition was inactive: 2.2%.

On to `O=C(OC1CN2CCC1CC2)C1c2ccccc2Oc2ccccc21` (stereo unspecified), for which the inhibition was inactive: -1.3%.

With `COc1ccc(Cl)cc1C(=O)NCC1(N2CCOCC2)CCCCC1`, the inhibition was inactive: -0.1%.

Take `CCOC(=O)N1CCC(Nc2ccc(OC)cc2)CC1`: the inhibition is inactive: 1.8%.

For `CCCCn1nnnc1C(c1ccc(OC)cc1)N1CCC(n2c(=O)[nH]c3ccccc32)CC1` (stereo unspecified), the inhibition is inactive: -0.2%.

Consider `COc1ccc(C(=O)NCC2(N3CCCCC3)CCCCC2)cc1`, for which the inhibition was inactive: -2.1%.

Take `CC(C)(C)OC(=O)N1CCC(N(C(=O)c2ccccc2)c2ccc(F)cc2)CC1`: the inhibition is inactive: 1.4%.

Regarding `COc1ccc(C(=O)NCC2(N3CCCCC3)CCCCC2)c(OC)c1OC`, the inhibition was inactive: -1.1%.

With `CCC(c1nnnn1C1CCCC1)N1CCC(n2c(=O)[nH]c3ccccc32)CC1` (stereo unspecified), the inhibition was inactive: -0.3%.

Regarding `O=C(NCC1(N2CCCCC2)CCCCC1)c1ccc(=O)[nH]c1`, the inhibition was inactive: -1.3%.

For `O=C(NCC1(N2CCCCC2)CCCCC1)c1cccs1`, the inhibition was inactive: 0.5%.

With `CCCCn1nnnc1C(CC)N1CCC(n2c(=O)[nH]c3ccccc32)CC1` (stereo unspecified), the inhibition is inactive: 1.4%.

On to `CCCCn1nnnc1C(c1cccs1)N1CCC(n2c(=O)[nH]c3ccccc32)CC1` (stereo unspecified), for which the inhibition was inactive: -1.2%.

Turning to `CSc1ccccc1C(=O)NCC1(N2CCCCC2)CCCCC1`, the inhibition is inactive: -0.9%.

As to `Cc1cccc(NC2(C#N)CCN(Cc3ccccc3)CC2)c1`, the inhibition is inactive: -1%.
